These are literature values, as cited in article PMC4266452, “Prediction of Thorough QT study results using action potential simulations based on ion channel screens” (Journal of Pharmacological and Toxicological Methods, 2014).

For this data set the following is noted: ref Gintant (2011); cited from earlier work.

As to `CN(CCOc1ccc(NS(C)(=O)=O)cc1)CCc1ccc(NS(C)(=O)=O)cc1` [Dofetilide], the “therapeutic range, lower value” is 0.4 nM and the “therapeutic range, upper value” is given as 2 nM.
